Assay results as given in patent US7511133B2 (dated 2009).

Chains of the proteins cited; added tags and fusions are not shown.
UniProt P0DMS8, whole entry: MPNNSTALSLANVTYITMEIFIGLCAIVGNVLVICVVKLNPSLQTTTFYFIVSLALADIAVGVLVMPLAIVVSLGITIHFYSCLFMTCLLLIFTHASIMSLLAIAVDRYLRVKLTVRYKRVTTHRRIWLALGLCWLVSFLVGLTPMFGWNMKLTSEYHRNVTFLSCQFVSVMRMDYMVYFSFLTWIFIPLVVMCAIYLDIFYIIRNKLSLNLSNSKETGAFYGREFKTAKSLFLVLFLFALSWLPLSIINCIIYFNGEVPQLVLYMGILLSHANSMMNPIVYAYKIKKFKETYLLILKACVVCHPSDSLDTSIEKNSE
UniProt P30542, whole entry: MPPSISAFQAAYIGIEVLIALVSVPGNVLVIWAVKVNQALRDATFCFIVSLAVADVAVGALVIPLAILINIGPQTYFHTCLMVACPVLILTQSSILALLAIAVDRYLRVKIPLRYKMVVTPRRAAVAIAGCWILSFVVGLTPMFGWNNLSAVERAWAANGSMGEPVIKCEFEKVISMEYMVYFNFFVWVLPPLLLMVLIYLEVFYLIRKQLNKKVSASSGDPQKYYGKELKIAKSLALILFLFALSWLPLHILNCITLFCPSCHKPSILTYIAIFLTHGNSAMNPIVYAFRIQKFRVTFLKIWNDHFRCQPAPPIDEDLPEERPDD

Experiments:
[1] = target: human A3 adenosine receptors (Homo sapiens, UniProt P0DMS8)
[2] = target: human A1 adenosine receptors (Homo sapiens, UniProt P30542); experiment: Displacement of [^3H]CHA binding, human A1 adenosine receptors in CHO cells (agonist radioligand)
[3] = target: human A1 receptors (Homo sapiens, UniProt P30542); experiment: [^3H] DPCPX binding to human A1 receptors expressed in CHO cells (antagonist radioligand)
[4] = target: human A3 receptors (Homo sapiens, UniProt P0DMS8); experiment: [^3H] MRE3008F20 binding to human A3 receptors expressed in CHO cells (antagonist radioligand)

Compound	Ki [1] [µM]	Ki [2] [µM]	Ki [3] [µM]	Ki [4] [µM]
CCNC(=O)[C@H]1O[C@@H](n2cnc3c(NC(=O)Nc4ccc(S(=O)(=O)N(CC)CC)cc4)ncnc32)[C@H](O)[C@@H]1O [Compound 100, 1-Deoxy-1-[6-[[[[4-[N,N-bis(ethyl)amino-sulfonyl]phenyl]amino]carbonyl]amino]-9H-purin-9-yl]-N-ethyl-β-D-ribofuranuronamide]	0.009	0.35	–	–
C=CCN(C)S(=O)(=O)c1ccc(NC(=O)Nc2ncnc3c2ncn3[C@@H]2O[C@H](C(=O)NCC)[C@@H](O)[C@H]2O)cc1 [Compound 96, 1-Deoxy-1-[6-[[[[4-[N-(allyl)-N-(methyl)amino-sulfonyl]phenyl]amino]carbonyl]amino]-9H-purin-9-yl]-N-ethyl-β-D-ribofuranuronamide]	–	0.206	> 1	–
CCNC(=O)[C@H]1O[C@@H](n2cnc3c(NC(=O)Nc4ccc(S(=O)(=O)N5CCCC5)cc4)ncnc32)[C@H](O)[C@@H]1O [Compound 90, 1-Deoxy-1-[6-[[[[4-[(pyrrolidin-1-yl)sulfonyl]phenyl]amino]carbonyl]amino]-9H-purin-9-yl]-N-ethyl-β-D-ribofuranuronamide]	–	0.7	> 1	–
CCNC(=O)[C@H]1O[C@@H](n2cnc3c(NC(=O)Nc4ccc(S(=O)(=O)Nc5ccc(OC)cc5)cc4)ncnc32)[C@H](O)[C@@H]1O [Compound 88, 1-Deoxy-1-[6-[[[[4-[N-(4-methoxyphenyl)aminosulfonyl]phenyl]-amino]carbo-nyl]amino]-9H-purin-9-yl]-N-ethyl-β-D-ribofuranuronamide]	0.023	–	–	0.573
CCNC(=O)[C@H]1O[C@@H](n2cnc3c(NC(=O)Nc4ccc(S(=O)(=O)NCc5ccccc5)cc4)ncnc32)[C@H](O)[C@@H]1O [Compound 86, 1-Deoxy-1-[6-[[[[4-[N-(benzyl)aminosulfonyl]phenyl]amino]-carbonyl]amino]-9H-purin-9-yl]-N-ethyl-β-D-ribofuranuronamide]	0.024	–	–	0.303
CCNC(=O)[C@H]1O[C@@H](n2cnc3c(NC(=O)Nc4ccc(S(=O)(=O)N(C)C(C)C)cc4)ncnc32)C(O)C1O (stereo partly drawn) [Compound 97, 1-Deoxy-1-[6-[[[[4-[N-(1-methylethyl)-N-(methyl)-aminosulfonyl]phenyl]amino]carbo-nyl]amino]-9H-purin-9-yl]-N-ethyl-β-D-ribofuranuronamide]	–	0.325	–	–

Second part, the compound after the results:

Ki [1] [µM]	Ki [2] [µM]	Ki [3] [µM]	Ki [4] [µM]	Compound
0.023	–	–	0.13	CCNC(=O)[C@H]1O[C@@H](n2cnc3c(NC(=O)Nc4ccc(S(=O)(=O)NC5CCCCC5)cc4)ncnc32)[C@H](O)[C@@H]1O [Compound 94, 1-Deoxy-1-[6-[[[[4-[N-(cyclohexyl)aminosulfonyl]phenyl]-amino]carbonyl]amino]-9H-purin-9-yl]-N-ethyl-β-D-ribofuranuronamide]
0.017	0.75	> 1	0.137	CCNC(=O)[C@H]1O[C@@H](n2cnc3c(NC(=O)Nc4ccc(S(=O)(=O)N5CCCCC5)cc4)ncnc32)[C@H](O)[C@@H]1O [Compound 83, 1-Deoxy-1-[6-[[[[4-[(piperidin-1-yl)sulfonyl]phenyl]amino]carbonyl]amino]-9H-purin-9-yl]-N-ethyl-β-D-ribofuranuronamide]
0.012	–	–	–	CCNC(=O)[C@H]1O[C@@H](n2cnc3c(NC(=O)Nc4ccc(S(=O)(=O)N(C)C)cc4)ncnc32)C(O)C1O (stereo partly drawn) [Compound 98, 1-Deoxy-1-[6-[[[[4-[N,N-(dimethyl)amino-sulfonyl]phenyl]amino]carbonyl]amino]-9H-purin-9-yl]-N-ethyl-β-D-ribofuranuronamide]
